According to PMC3894748:

Target: plasma membrane calcium pump (PMCA) (Homo sapiens) (UniProt P23634)
Assay: Ca2+-ATPase activity inhibition

Ki: 670 nM
Substance: F-actin (from UniProt P60709)
